Test: Aqueous solubility of ziprasidone salt forms
From the text: To achieve efficacious blood levels over long periods of time, the sustained release dosage form should release ziprasidone to the gastrointestinal tract in a manner that allows ziprasidone to be absorbed for a sustained length of time. However, formulating ziprasidone into a sustained release dosage form presents a number of problems. […] Such low solubility at intestinal pH inhibits absorption of ziprasidone in the intestines.
In one embodiment, the solubility-improved form of ziprasidone is a high solubility salt form. It is known that some low-solubility drugs may be formulated in highly soluble salt forms that provide temporary improvements in the concentration of the drug in a use environment relative to another salt form of the drug.

pH of Saturated Solution: 3.4
Substance: Succinate

Source: patent US20070190129A1, “Sustained release dosage forms of ziprasidone” (Pfizer Inc., priority 2003, published 2007)
